Reference: ChEMBL document CHEMBL5058646 (2022)

Key:
Conditions in all cases: SUD4
[1] = molecular target: T1, Transcription regulator protein BACH2 (Homo sapiens) (UniProt Q9BYV9)
T1 sequence (whole entry): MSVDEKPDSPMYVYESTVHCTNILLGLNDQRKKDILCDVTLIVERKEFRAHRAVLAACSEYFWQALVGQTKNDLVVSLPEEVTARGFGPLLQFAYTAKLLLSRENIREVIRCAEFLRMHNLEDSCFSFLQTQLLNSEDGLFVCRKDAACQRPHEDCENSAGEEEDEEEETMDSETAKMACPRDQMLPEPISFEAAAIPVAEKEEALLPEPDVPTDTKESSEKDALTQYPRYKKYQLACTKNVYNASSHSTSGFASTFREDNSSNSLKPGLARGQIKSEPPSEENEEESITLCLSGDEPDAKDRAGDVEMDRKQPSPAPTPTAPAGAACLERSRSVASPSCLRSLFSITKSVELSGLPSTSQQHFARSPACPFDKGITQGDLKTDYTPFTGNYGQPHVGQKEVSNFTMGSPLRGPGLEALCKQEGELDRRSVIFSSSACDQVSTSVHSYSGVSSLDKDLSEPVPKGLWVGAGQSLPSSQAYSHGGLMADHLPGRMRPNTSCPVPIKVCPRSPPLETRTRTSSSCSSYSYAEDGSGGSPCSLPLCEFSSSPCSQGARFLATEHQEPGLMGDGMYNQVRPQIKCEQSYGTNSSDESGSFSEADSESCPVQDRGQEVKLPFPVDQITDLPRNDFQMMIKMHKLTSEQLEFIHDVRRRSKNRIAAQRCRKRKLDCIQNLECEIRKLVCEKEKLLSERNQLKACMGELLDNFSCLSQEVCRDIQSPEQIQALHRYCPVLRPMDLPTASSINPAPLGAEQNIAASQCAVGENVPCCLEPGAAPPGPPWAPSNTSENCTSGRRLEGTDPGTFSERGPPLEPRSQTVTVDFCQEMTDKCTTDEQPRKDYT

[2] = molecular target: T2, Zinc finger and BTB domain-containing protein 24 (Homo sapiens) (UniProt O43167)
T2 sequence (whole entry): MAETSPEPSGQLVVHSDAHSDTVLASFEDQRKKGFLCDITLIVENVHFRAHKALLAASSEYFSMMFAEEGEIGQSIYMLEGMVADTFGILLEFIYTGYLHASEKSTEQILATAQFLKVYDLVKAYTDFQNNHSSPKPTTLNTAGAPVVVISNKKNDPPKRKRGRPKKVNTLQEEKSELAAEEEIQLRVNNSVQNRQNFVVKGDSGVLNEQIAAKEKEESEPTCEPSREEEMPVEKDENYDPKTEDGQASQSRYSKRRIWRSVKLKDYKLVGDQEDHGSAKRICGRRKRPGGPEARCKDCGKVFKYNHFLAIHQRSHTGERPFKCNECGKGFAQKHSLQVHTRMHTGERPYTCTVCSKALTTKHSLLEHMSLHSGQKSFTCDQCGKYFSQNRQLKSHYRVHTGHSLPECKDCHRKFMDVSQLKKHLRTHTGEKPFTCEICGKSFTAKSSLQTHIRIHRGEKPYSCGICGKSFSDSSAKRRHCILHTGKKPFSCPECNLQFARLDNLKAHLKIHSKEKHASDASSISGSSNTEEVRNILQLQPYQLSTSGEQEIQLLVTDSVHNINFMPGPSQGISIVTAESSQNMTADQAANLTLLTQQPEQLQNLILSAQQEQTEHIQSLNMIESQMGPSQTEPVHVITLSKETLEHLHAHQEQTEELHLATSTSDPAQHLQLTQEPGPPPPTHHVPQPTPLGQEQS

[3] = molecular target: T3, Zinc finger and BTB domain-containing protein 21 (Homo sapiens) (UniProt Q9ULJ3)
T3 sequence (whole entry): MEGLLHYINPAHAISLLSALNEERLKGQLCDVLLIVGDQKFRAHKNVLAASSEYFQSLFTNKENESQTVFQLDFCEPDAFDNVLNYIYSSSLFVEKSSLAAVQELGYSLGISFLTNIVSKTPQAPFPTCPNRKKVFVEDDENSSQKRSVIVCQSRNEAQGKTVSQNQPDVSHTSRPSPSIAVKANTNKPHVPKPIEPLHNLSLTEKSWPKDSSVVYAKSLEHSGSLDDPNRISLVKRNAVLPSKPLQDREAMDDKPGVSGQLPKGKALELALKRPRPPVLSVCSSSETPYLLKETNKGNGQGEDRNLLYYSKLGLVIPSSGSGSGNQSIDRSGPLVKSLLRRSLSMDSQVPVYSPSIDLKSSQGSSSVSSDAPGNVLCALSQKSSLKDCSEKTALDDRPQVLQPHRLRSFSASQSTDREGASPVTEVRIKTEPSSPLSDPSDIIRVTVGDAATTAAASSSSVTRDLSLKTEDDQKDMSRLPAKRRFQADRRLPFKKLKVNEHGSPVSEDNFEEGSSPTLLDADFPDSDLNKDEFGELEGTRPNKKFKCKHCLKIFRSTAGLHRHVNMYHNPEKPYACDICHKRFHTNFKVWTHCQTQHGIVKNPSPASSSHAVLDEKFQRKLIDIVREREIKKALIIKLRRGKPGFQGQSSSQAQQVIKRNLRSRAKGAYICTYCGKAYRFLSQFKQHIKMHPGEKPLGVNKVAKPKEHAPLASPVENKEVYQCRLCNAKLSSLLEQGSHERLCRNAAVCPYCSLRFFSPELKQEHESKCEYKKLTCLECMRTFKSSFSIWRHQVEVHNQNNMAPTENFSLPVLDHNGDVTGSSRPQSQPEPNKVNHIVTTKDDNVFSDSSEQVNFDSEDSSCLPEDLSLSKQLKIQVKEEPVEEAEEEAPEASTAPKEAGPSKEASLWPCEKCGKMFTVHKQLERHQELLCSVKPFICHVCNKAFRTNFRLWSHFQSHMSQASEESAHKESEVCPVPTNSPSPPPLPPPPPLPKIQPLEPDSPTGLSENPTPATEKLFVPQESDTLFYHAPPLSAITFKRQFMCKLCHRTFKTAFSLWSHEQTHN

[4] = molecular target: T2, Zinc finger and BTB domain-containing protein 24 (Homo sapiens); remark: listed apart in the source

Normalized abundances for DMSO [1]: 2130 | Normalized abundances for compound [1]: 2080 | Normalized abundances for DMSO [2]: 288 | Normalized abundances for compound [2]: 293 | Normalized abundances for DMSO [3]: 402 | Normalized abundances for compound [3]: 407 | Normalized abundances for DMSO [4]: 291 | Normalized abundances for compound [4]: 291
SMILES: C[C@@H]1CN(c2ncc(Cl)c(Nc3ccc4c(c3)n(CCC(C)(C)O)c(=O)n4C)n2)C[C@H](C)C1(F)F
